From paper PMC8567046, “SMYD2‐mediated TRAF2 methylation promotes the NF‐κB signaling pathways in inflammatory diseases” (Clinical and Translational Medicine, 2021)

Target: T1, His-TRAF2 (immobilised on CM5) (UniProt Q12933 1-501)
T1 construct: TRAF2; Isolated protein coupled to the sensor surface
T1 sequence (looked up): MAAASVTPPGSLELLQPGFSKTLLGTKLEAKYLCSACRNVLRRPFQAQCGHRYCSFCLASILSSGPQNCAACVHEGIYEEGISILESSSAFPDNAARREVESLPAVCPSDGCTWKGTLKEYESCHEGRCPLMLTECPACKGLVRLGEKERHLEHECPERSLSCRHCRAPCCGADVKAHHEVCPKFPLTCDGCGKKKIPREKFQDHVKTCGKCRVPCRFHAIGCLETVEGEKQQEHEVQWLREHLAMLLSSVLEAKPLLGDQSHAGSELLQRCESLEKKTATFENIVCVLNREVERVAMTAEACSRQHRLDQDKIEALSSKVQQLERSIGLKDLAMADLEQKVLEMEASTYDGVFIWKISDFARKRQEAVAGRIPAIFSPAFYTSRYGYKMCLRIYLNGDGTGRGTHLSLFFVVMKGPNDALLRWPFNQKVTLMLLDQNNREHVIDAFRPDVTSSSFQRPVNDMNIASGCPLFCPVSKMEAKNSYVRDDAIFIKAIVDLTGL
Assay: SPR; Biacore; His-TRAF2 immobilised on CM5; His-SMYD2 in HBS buffer at 0.039 μM - 1.25 μM injected; association 45 s, dissociation 100 s
Details: both partners purified

B1: His-SMYD2 (enzyme, UniProt Q9NRG4 1-433, looked up)
chain: MRAEGLGGLERFCSPGKGRGLRALQPFQVGDLLFSCPAYAYVLTVNERGNHCEYCFTRKEGLSKCGRCKQAFYCNVECQKEDWPMHKLECSPMVVFGENWNPSETVRLTARILAKQKIHPERTPSEKLLAVKEFESHLDKLDNEKKDLIQSDIAALHHFYSKHLGFPDNDSLVVLFAQVNCNGFTIEDEELSHLGSAIFPDVALMNHSCCPNVIVTYKGTLAEVRAVQEIKPGEEVFTSYIDLLYPTEDRNDRLRDSYFFTCECQECTTKDKDKAKVEIRKLSDPPKAEAIRDMVRYARNVIEEFRRAKHYKSPSELLEICELSQEKMSSVFEDSNVYMLHMMYQAMGVCLYMQDWEGALQYGQKIIKPYSKHYPLYSLNVASMWLKLGRLYMGLEHKAAGEKALKKAIAIMEVAHGKDHPYISEIKQEIESH
notes: SMYD2; also called highly purified His-SMYD2; source: highly purified
In the case of B1, the Kd is reported as 29.4 nM, the koff is reported as 0.00103 s⁻¹ and the kon is reported as 35100 M⁻¹ s⁻¹.
